Earlier results, collected in US9517202B2, “Phospholipid depot” (LATITUDE PHARMACEUTICALS INC., priority 2009, dated 2016).

Conditions: in vivo; cited from earlier work

insulin
half-life in the circulation: 5 to 6 min
